This is an account of results in PubChem BioAssay AID488896 (Broad Institute, 2010).

Amino acid sequences for entries named in this document (tags omitted).
UniProt Q61009, whole entry: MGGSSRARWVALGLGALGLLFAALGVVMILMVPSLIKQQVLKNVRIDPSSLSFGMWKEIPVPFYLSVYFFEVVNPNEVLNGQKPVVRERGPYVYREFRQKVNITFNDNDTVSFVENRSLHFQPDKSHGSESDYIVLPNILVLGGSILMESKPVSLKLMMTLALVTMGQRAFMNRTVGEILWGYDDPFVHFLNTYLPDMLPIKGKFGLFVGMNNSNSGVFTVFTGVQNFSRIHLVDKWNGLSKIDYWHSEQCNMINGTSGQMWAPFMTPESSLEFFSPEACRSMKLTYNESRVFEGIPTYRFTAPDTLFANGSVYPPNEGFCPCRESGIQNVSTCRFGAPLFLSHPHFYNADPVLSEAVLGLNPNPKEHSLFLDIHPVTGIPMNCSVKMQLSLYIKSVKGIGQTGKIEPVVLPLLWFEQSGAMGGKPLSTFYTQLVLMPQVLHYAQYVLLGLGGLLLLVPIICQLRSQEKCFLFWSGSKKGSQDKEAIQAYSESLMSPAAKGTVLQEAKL

For orientation: inhibition means the change of the read-out against control, counted positive when it falls.

Only a part is listed here, and it is no random draw. Some of these compounds have results that are not shown, active ones among them. The source made the active and inactive calls.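 Rule for the calls: active = mean replicate inhibition of at least 70% and a set share of replicates each scoring 70 or more; inconclusive = meets just one of the two criteria; inactive = fails both criteria.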

This experiment has as its target Scavenger receptor class B member 1 (Mus musculus) (UniProt Q61009). Nature of the experiment: mouse SR-BI DiI-HDL uptake blockers – ldlA[mSR-BI] cells, fluorescence, single point, primary screen (AID 488896).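 Note: 0% = median of neutral control wells and 100% = median of positive control wells.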 The note with it: ldlA[mSR-BI] CHO cells, 3 h, at 12.5 µM, active compounds read high.
In the case of `O=C(OC1CN2CCC1CC2)C(CO)(c1ccccc1)c1ccccc1` (configuration not stated), the inhibition is inactive: -29%.

With `CN(C)c1cccc(C(=O)NCC2(N(C)C)CCCCC2)c1`, the inhibition was inactive: -36.6%. Regarding `O=C(OCCN1CCCC1)C(O)(c1ccccc1)c1ccccc1`, the inhibition was inactive: 1.28%. Next, `CC(C)Oc1ccc(C(=O)NCC2(N(C)C)CCCCC2)cc1`: inactive: 7.08%. Consider `CN(C)C1(CNC(=O)c2ccc(Br)cc2)CCCCC1`, for which the inhibition is inactive: -54.8%. For `COc1cc(C(=O)NCC2(N(C)C)CCCCC2)c([N+](=O)[O-])cc1OC` the value was inactive: -6.86%; for `COc1ccc(Cl)cc1C(=O)NCC1(N(C)C)CCCCC1`, inactive: -0.252%.

In the case of `COc1cccc(C(=O)NCC2(N3CCCCC3)CCCCC2)c1`, the inhibition is inactive: -2.95%. For `CN(C)c1ccc(C(=O)NCC2(N(C)C)CCCCC2)cc1` the value was inactive: 10.3%; for `CN(C)C1CCCC1OC(=O)C(O)(c1ccccc1)c1ccccc1` (configuration not stated), inactive: -9.34%; for `Cc1ccccc1C(=O)NCC1(N2CCCCC2)CCCCC1`, inactive: -12.3%.

Regarding `O=C(NCC1(N2CCCCC2)CCCCC1)c1cc(F)c(F)cc1Cl`, the inhibition is inactive: -0.523%. Next, `C=CCN1CCN(CCOC(=O)C(O)(c2ccccc2)c2ccccc2)CC1`: inactive: -5.79%; `CCN1CCCC(OC(=O)C2(O)c3ccccc3C=Cc3ccccc32)C1` (configuration not stated): inactive: -37.4%; `Cc1cc(C(=O)NCC2(N3CCCCC3)CCCCC2)ccc1[N+](=O)[O-]`: inactive: 3.18%. Next, `COc1ccc(C(=O)NCC2(N(C)C)CCCCC2)cc1`: inactive: -20.7%. For `O=C(NCC1(N2CCCCC2)CCCCC1)c1cc([N+](=O)[O-])ccc1Cl` the value was inactive: -13.3%; for `CN1[C@@H]2CC[C@H]1CC(OC(=O)C(O)(c1ccccc1)c1ccccc1)C2` (some centres not stated), inactive: -12.2%. Consider `CC(C)N1C(=O)CC2(CCN(CCOC(=O)C(O)(c3ccccc3)c3ccccc3)CC2)C1=O`, for which the inhibition is inactive: -18.6%.

For the compound `COc1cc(SC)ccc1C(=O)NCC1(N(C)C)CCCCC1`, the inhibition is inactive: -25.3%. Next, `CCN(CC)CC(C)C(C)OC(=O)C(O)(c1ccccc1)c1ccccc1` (configuration not stated): inactive: -10.9%; `Cc1ccc(C(=O)NCC2(N3CCCCC3)CCCCC2)cc1`: inactive: -18%.
